This experiment has as its system cultured human adipocytes. As to the kind of experiment: In vitro lipolysis assay (glycerol release) in cultured adipocytes. It is filed as cell-based. As to conditions: three hour incubation. As to the method:
In the in vitro lipolysis assay, glycerol was detected in cell culture media via a spectrophotometric measurement after chemical oxidation with hydrogen peroxide. Glycerol was measured over a three hour time period. Levels of lipolysis in cultured human adipocytes were tested after exposure to a beta adrenergic agonist alone, a glucocorticosteroid alone, or the combination of the two for one or more preincubation periods as described in more detail below.
Human subcutaneous adipocytes were used in the lipolysis assay. Adipose tissue was harvested from liposuction or lipectomy and pre-adipocytes were isolated as follows. Briefly, fat tissue was minced and incubated at 37° C. in Krebs-Ringer bicarbonate buffer containing 1% bovine serum albumin and 0.1% collagenase in an oxygen-rich shaking chamber (5% CO2; 75 strokes/min) for 1 hour. The suspension was filtered through a 400 μm nylon mesh and centrifuged for 1 min at 100 g. The pre-adipocytes in the supernatant were washed twice with and then plated in 96 well plates at a density of cells/well. The pre-adipocytes were cultured in maintenance medium for seven days as they differentiated into adipocytes.
At −21 hours before the lipolysis assay, medium was removed from each well and replaced with 75 μl of Maintenance Medium containing appropriate drug or DMSO (vehicle) concentrations (see Experimental Design section below). Each test drug or control treatment was applied to 8 wells/group (12 treatment groups per 96-well plate). […]
The glycerol content of the Assay Buffer from each well following the incubation was used as an index for lipolysis, where an increase in glycerol indicated lipolysis. Glycerol levels were assayed colorimetrically via a commercial glycerol assay kit (Randox Laboratory, United Kingdom) and quantified by comparison to a glycerol serial dilution standard curve (3 μM-200 μM). […]

With `OCc1cc(C(O)CNCCCCCCOCCCCc2ccccc2)ccc1O` (racemic) [Salmeterol, ±2-(hydroxymethyl)-4-[1-hydroxy-2-[6-(4-phenylbutoxy)hexylamino]ethyl]-phenol], the “induction of lipolysis in cultured adipocytes (figure legend)” value was “dose-dependent induction of lipolysis”. The “lipolysis compared with Isoproterenol (positive control)” value (Isoproterenol 10^−6 M, formoterol statement holds for concentrations of 10^−6 M and above) is listed as “equal to or less than that observed for Isoproterenol”. The increase in lipolysis result (relative to negative control (0.1% DMSO), Isoproterenol 10^−6 M positive control) was “slightly greater than two fold”.

(Values after patent publication US20100137267A1, “FORMULATIONS FOR TREATMENT OF ADIPOSE TISSUE, CUTANEOUS TISSUE AND DISORDERS, AND MUSCULAR TISSUE” (priority 2006, published 2010).)
